Test results from US20080269114A1 (7TM PHARMA A S, published 2008).

Sequences of proteins named here, by UniProt entry; tags and fusion partners are left off. A change or cut given only in a name is not applied to a line headed by its entry.
UniProt P50391: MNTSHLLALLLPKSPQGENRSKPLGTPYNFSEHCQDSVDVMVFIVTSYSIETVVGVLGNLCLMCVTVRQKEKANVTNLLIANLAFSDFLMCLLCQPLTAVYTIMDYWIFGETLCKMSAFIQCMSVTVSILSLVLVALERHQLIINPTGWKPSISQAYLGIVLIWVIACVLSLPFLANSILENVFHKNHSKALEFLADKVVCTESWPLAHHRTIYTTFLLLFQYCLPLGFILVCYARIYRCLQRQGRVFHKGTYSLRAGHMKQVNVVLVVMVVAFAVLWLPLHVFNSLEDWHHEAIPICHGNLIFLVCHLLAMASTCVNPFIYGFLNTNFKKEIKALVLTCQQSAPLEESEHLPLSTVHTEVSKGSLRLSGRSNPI

Tests used:
[1] = biological target: T1, human Y4 receptor (human, UniProt P50391 1-375); test: competition binding, displacement of 125I-PP, COS-7 cells with human Y4
T1 construct: whole, on cells; also called PP receptor

[2] = biological target: T1, human Y4 receptor; test: cell-based or functional assay

| IC50 [1] [nM] | EC50, inositol phosphate turnover [2] [nM] | Binder |
| --- | --- | --- |
| 1.3 |  | CLTRPRY (C-terminal amide; disulfide bridge between the Cys residues of the two chains, also called [CLTRPRY-amide]×2) [[CLTRPRY-amide]x2 homo-dimer] |
|  | 1.2 | APLEPVYPGDNATPEQMAQYAADLRRYINMLTRHRY (chain 1 pos 36: C-terminal Tyr carboxyamide (CONH2)) [[His34]PP] |
| 29 |  | CTRPRY (C-terminal amide; disulfide bridge between the Cys residues of the two chains, also called [CTRPRY-amide]×2) [[CTRPRY-amide]x2 homo-dimer] |
